These results are taken from paper PMC9200282, “GPR15L is an epithelial inflammation-derived pruritogen” (Science Advances, 2022).

Amino acid sequences for entries named in this document (tags omitted). A change or cut given only in a name is not applied to a line headed by its entry.
UniProt Q96LB2: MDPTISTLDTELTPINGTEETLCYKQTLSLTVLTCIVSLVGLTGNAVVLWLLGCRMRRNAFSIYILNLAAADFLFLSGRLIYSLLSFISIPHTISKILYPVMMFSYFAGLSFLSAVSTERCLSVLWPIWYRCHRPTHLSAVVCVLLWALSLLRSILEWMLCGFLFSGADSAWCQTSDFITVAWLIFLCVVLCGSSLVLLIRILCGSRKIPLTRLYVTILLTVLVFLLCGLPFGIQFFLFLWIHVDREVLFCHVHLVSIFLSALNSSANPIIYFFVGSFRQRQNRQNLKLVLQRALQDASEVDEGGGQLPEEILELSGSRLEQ

Entries after “also recorded” stand apart in the source; their conditions may differ.

Assay [1] has as its system sushi domain containing 2 (SUSD2). As to conditions: cited from earlier work. The text has this: (§1) Inflammation is an important skin reaction evoked to various challenges. Among these responses, the release of various damage-associated molecular pattern (DAMP) agents causes stimulation in the innate immune system ([12]). Another dermal reaction during inflammation is the release of antimicrobial substances. In the skin, these include the release of peptides such as β-defensins, cathelicidin (LL-37), and eosinophil major basic protein (PRG2). Another peptide, C10orf99 (chromosome 10 open reading frame 99), which encodes a 57–amino acid cationic peptide, was implicated as an antimicrobial ([1 ...

A further assay deals with GPR15. As to conditions: cited from earlier work.
Description: as §1

Assay [2] has as its system Gram-positive bacteria, fungi, and virus. As to conditions: cited from earlier work. From the text: The human genome encodes eight MRGPR genes, while the mouse genome encodes more than 30 Mrgpr genes ([45]–[47]). The functional homology between human and mouse MRGPR proteins is not well defined. Nevertheless, it is acknowledged that there are strong similarities between MRGPRX2 and Mrgprb2 expressed in mast cells ([46]) and between MRGPRX1 and Mrgpra3 ...

The next assay addresses T1, MRGPRX1 (Homo sapiens, UniProt Q96LB2).
T1 construct: host or cells: HEK293
Put plainly: FLIPR calcium screening, MRGPRX1. As to conditions: MRGPRX1 vs MRGPRX2. The assay is classed as cell-based. As for the experimental part:
HEK293 cells were cultured in DMEM/F12 supplemented with 10% FBS, penicillin (100 U/ml), and streptomycin (100 μg/ml). For transient expression, 8 × 10^5 cells were seeded, cultured for 24 hours, and transfected using TransIT-293 (Mirus Bio). Cells were transfected with GCaMP6s, Gα15 subunit, together with an individual MRG receptor. Expression vectors for MRGPRX1, MRGPRX2, MRGPRX3, MRGPRX4, MRGPRD, MRGPRE, MRGPRF, and MRGPRG were obtained from Addgene. Mouse Mrgpr expression vectors for Mrgpra1, Mrgpra2b, Mrgpra3, Mrgprb2, Mrgprb4, Mrgprc11, and Mrgprd were obtained from X. Dong at Johns Hopkins University ([68]) as well as for Mrgpre (GenScript Inc.). After 48 hours, cells were plated at 20,000 cells per well in 96-well plates with HBSS (with calcium and magnesium) and measurements were made. The EC50 values were determined with a three-parameter dose-response curve in GraphPad Prism.

In assay [3] the test system is mice. In words: Scratching behavior after intradermal injection, wild-type mice. The assay is classed as in vivo, mouse. As to conditions: for scratching response: 10 μl in saline, nape. From the text:
(§2) Experiments using mice followed NIH guidelines and were approved by the National Institute of Dental and Craniofacial Research Animal Care and Use Committee. Eight- to twelve-week-old male and female mice were used: C57BL/6N (Envigo), Gpr15l (2610528A11Rik) KO (#TF3294, Taconic Bioscience Inc.), Sash mutant (c-Kit ^w-sh) mice (#030764, The Jackson Laboratory), Rag2 KO (recombination activating gene 2 deletion) mice (#033526, The Jackson Laboratory), ROSA-stop-DTA (#009669, The Jackson Laboratory) ([59]), Mrgpra3-Cre-eGFP from X. Dong ([36]), and Mcpt5-Cre ([33]).
(§3) Behavioral assessment of scratching was conducted as previously described ([60]). Recombinant GPR15L/Gpr15l peptides (Genscript USA Inc. or Biomatek USA LLC) or other pruritogens were intradermally injected (10 μl in saline) into the mouse nape area. Bouts were defined as scratching events directed toward the site of injection from lifting the hind leg from the ground to returning it. Itch responses were quantified by the bouts evoked within 30 min after chemical injection. In some behavioral tests, scratching bouts were automatically counted with the MicroAct system (Neuroscience, Inc.), and the monitor time was extended to 60 min as previously described ([61]). Briefly, a magnet (1 mm in diameter and 3 mm in length) was implanted under the skin of the dorsal hind paw at least 7 days before the behavioral tests ([62]). About 10 min before the tests, mice were placed into a special observation chamber with a ring coil. Vertical movements of the implanted magnets will induce currents, which were recorded. Scratching bouts were determined using MicroAct software ([63], [64]).

The subject of a further assay is Mcpt5-DTA mice. In words: Scratching behavior, mast cell-lacking (Mcpt5-DTA) mice. The assay is classed as in vivo, mouse. As to conditions: mast cell-deficient mice.
Description: as §2
as §3, with “Briefly, a magnet (1 mm in diameter and 3 mm in length) was implanted under the skin of the dorsal hind paw at least 7 days before the behavioral tests ([62]). About 10 min before the tests, mice were placed into a special observation chamber with a ring coil.” left out

For assay [4], the system named is mice. In words: Evans blue extravasation, wild-type mice. The assay is classed as in vivo, mouse. As to conditions: intraplanar.
Description: as §2
Evans blue was used to assay extravasation as previously described ([44]). Briefly, Evans blue powder (Sigma-Aldrich) was dissolved in saline to 1% working solution. Approximately 200 to 250 μl (100 mg/kg) of the solution was injected through mouse tail veins. Hind paws were injected subcutaneously with 10 μl of GPR15L/Gpr15l peptide (GenScript USA Inc. and Biomatek USA LLC), and an equal volume of saline was injected into the contralateral paw. Tissues were dissected, air-dried overnight, weighed, and then immersed into 400 μl of formamide overnight. Optical density (OD) values (mg/ml) were measured with a spectrophotometer at 610-nm wavelength. Plasma extravasation values were calculated by normalized OD values with tissue weights.

A further assay concerns LAD2 human mast cells. Put plainly: Calcium imaging of LAD2 human mast cells. The assay is classed as cell-based. As to conditions: 1 μM. As for the experimental part: LAD2 cells were maintained in StemPro-34 (Gibco) supplemented with recombinant human stem cell factor (100 ng/ml) and penicillin/streptomycin, as described previously ([32]). LAD2 cells were loaded with Fluo-8 AM for 30 min at 37°C, washed twice in Hanks’ balanced salt solution (HBSS), and incubated for 30 min at room temperature.

On to `CC(C)C[C@H](NC(=O)[C@H](CCCNC(=N)N)NC(=O)[C@@H](NC(=O)[C@H](Cc1c[nH]cn1)NC(=O)[C@H](Cc1c[nH]cn1)NC(=O)CNC(=O)[C@H](CCCCN)NC(=O)[C@H](CC(C)C)NC(=O)[C@H](CC(N)=O)NC(=O)[C@@H](NC(=O)[C@H](CO)NC(=O)[C@H](CC(N)=O)NC(=O)[C@@H]1CCCN1C(=O)[C@H](CO)NC(=O)[C@@H]1CCCN1C(=O)[C@@H](NC(=O)[C@H](CCCNC(=N)N)NC(=O)[C@H](Cc1c[nH]cn1)NC(=O)[C@H](CS)NC(=O)[C@H](CS)NC(=O)[C@H](CC(C)C)NC(=O)[C@H](CCCNC(=N)N)NC(=O)[C@@H](NC(=O)[C@H](CCCNC(=N)N)NC(=O)[C@H](CCCNC(=N)N)NC(=O)CNC(=O)[C@H](CO)NC(=O)[C@H](Cc1c[nH]c2ccccc12)NC(=O)[C@H](C)NC(=O)[C@H](CCCCN)NC(=O)[C@H](C)NC(=O)[C@@H]1CCCN1C(=O)[C@H](CCCNC(=N)N)NC(=O)[C@H](CCCNC(=N)N)NC(=O)[C@@H](N)CCCCN)[C@@H](C)O)C(C)C)[C@@H](C)O)C(C)C)C(=O)N[C@@H](CS)C(=O)N[C@@H](CCCCN)C(=O)N1CCC[C@H]1C(=O)N[C@@H](CS)C(=O)N[C@@H](CCCCN)C(=O)N[C@@H](CC(C)C)C(=O)N[C@@H](CCC(=O)O)C(=O)N1CCC[C@H]1C(=O)N[C@@H](CCC(=O)O)C(=O)N1CCC[C@H]1C(=O)N[C@@H](CCCNC(=N)N)C(=O)N[C@@H](CC(C)C)C(=O)N[C@@H](Cc1c[nH]c2ccccc12)C(=O)N[C@H](C(=O)N[C@H](C(=O)N1CCC[C@H]1C(=O)NCC(=O)N[C@@H](C)C(=O)N[C@@H](CC(C)C)C(=O)N1CCC[C@H]1C(=O)N[C@@H](CCC(N)=O)C(=O)N[C@H](C(=O)O)C(C)C)C(C)C)C(C)C` [GPR15L], for which, in assay [1], the SUSD2 ligand result is listed as “ligand for sushi domain containing 2 (SUSD2)”. Besides, the GPR15 ligand result in the assay on GPR15 is “cognate ligand”. Besides, the antimicrobial activity result in assay [2] was “broad-spectrum antimicrobial peptide”. Further, at MRGPRX1, the “EC50 for MRGPRX1 relative to MRGPRX2 (printed "lower")” value is listed as “about 10 fold”. For the same molecule, the scratching response result is recorded as “dose-dependently evoked robust scratching responses in mice” in the assay with mice [3] and “evoked intense itch phenotype” with mice [3] (listed as human GPR15L). Besides, the “pruritic potency (molar concentrations)” value in the assay on mice [3] (Fig. 2B) is “higher than that for both histamine and chloroquine”. Further, the “duration of scratching response vs chloroquine” value in the assay on mice [3] (n = 6 in 1 mM, n = 4 in 3 mM, chloroquine n = 5) is listed as “long-lasting pruritogenic effects when compared to chloroquine; also recorded: long-lasting scratching responses when compared to chloroquine”. Besides, the “itch phenotype after mast cell depletion” value in the assay with Mcpt5-DTA mice is on record as “not reduced by mast cell depletion”. Moreover, in the assay with mice [4], the “vascular permeability / extravasation” value is given as “increased vascular permeability resulting in extravasation”. In addition, the “increase in intracellular calcium” value in the assay on LAD2 human mast cells is “triggered increases in intracellular calcium”.
